From patent publication US10196396B2 (priority 2016, dated 2019) come the findings set out here.

Protein sequences, listed by entry. Tags and fused reporters are not part of them.
UniProt P0DMS8, whole entry: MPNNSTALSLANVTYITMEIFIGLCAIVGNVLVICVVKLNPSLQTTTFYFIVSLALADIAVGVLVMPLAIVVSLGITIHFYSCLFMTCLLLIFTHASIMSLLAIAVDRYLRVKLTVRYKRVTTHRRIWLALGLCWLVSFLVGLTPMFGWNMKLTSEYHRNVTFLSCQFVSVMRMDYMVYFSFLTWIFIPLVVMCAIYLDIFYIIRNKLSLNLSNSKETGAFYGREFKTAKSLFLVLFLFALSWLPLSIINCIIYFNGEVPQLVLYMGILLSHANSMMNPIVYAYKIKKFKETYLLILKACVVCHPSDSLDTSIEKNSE
UniProt P30542, whole entry: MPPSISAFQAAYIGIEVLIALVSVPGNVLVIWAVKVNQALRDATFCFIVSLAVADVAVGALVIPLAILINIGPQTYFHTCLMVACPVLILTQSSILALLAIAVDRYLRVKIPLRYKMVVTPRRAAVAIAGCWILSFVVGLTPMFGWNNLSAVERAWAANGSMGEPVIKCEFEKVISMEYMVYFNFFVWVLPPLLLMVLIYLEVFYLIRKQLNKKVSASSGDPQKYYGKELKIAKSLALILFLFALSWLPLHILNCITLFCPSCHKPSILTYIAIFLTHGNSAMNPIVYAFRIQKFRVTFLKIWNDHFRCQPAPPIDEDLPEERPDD

The term IC50 denotes the concentration at which inhibition is half-maximal. Higher therefore signals weaker potency. What is called Ki is a measure of affinity in units of concentration, obtained from inhibition or displacement.

One assay addresses human A3 receptor (Homo sapiens (Human), UniProt P0DMS8). Description: cell-based.
Assay [1] addresses human A2a adenosine receptor (Homo sapiens (Human), UniProt P29274). Description: biochemical.
The target of assay [2] is human A1 adenosine receptor (Homo sapiens (Human), UniProt P30542). Description: biochemical.

On human A3 receptor, `O[C@@H]1[C@H](O)CC[C@H]1c1nnc2c(NCCc3cccc(F)c3)nccn12` [Compound 237, (1R,2S,3S)-3-(8-((3-fluorophenethyl)amino)-[1,2,4]triazolo[4,3-a]pyrazin-3-yl)cyclopentane-1,2-diol] had an IC50 of 10 to 100 nM.

As to `O[C@@H]1[C@H](O)CS[C@H]1c1cnc2c(NCCc3cc(F)ccc3F)nccn12` [Compound 194, (2S,3R,4S)-2-(8-((2,5-difluorophenethyl)amino)imidazo[1,2-a]pyrazin-3-yl)tetrahydrothiophene-3,4-diol], the IC50 against human A3 receptor is 10 to 100 nM.

For the molecule `O[C@@H]1[C@H](O)CC[C@H]1c1nnc2c(NCc3cc(Cl)ccc3F)nccn12` [Compound 235, (1R,2S,3S)-3-(8-((5-chloro-2-fluorobenzyl)amino)-[1,2,4]triazolo[4,3-a]pyrazin-3-yl)cyclopentane-1,2-diol], the IC50 against human A3 receptor lay within 10 to 100 nM.

For `O[C@@H]1[C@H](O)CC[C@H]1c1cnc2c(NCc3cc(Cl)ccc3Cl)nccn12` [Compound 224, (1R,2S,3S)-3-(8-((2,5-dichlorobenzyl)amino)imidazo[1,2-a]pyrazin-3-yl)cyclopentane-1,2-diol], on human A3 receptor, the IC50 is 10 to 100 nM.

In the case of `O[C@@H]1[C@H](O)CC[C@H]1c1cnc2c(NCCc3ccc(Cl)c(F)c3)nccn12` [Compound 231, (1R,2S,3S)-3-(8-((4-chloro-3-fluorophenethyl)amino)imidazo[1,2-a]pyrazin-3-yl)cyclopentane-1,2-diol], the IC50 on human A3 receptor lay in the range of 10 to 100 nM.

Consider `O[C@@H]1[C@H](O)CS[C@H]1c1cnc2c(NCc3cccc(-c4nnn[nH]4)c3)nccn12` [Compound 191, (2S,3R,4S)-2-(8-((3-(1H-tetrazol-5-yl)benzyl)amino)imidazo[1,2-a]pyrazin-3-yl)tetrahydrothiophene-3,4-diol 2,2,2-trifluoroacetic acid], for which the IC50 on human A3 receptor lay within 10 to 100 nM.

The molecule `O[C@@H]1[C@H](O)CC[C@H]1c1cnc2c(NCc3cc(Cl)ccc3F)nccn12` [Compound 225, (1R,2S,3S)-3-(8-((5-chloro-2-fluorobenzyl)amino)imidazo[1,2-a]pyrazin-3-yl)cyclopentane-1,2-diol] yielded an IC50 at human A3 receptor of 10 to 100 nM.

Molecule `O[C@@H]1[C@H](O)CS[C@H]1c1cnc2c(SCc3cccc(Cl)c3)nccn12` [Compound 199, (2S,3R,4S)-2-(8-((3-chlorobenzyl)thio)imidazo[1,2-a]pyrazin-3-yl)tetrahydrothiophene-3,4-diol] registered an IC50 against human A3 receptor of less than 10 nM.

On to `O[C@@H]1[C@H](O)CC[C@H]1c1cnc2c(NCCc3ccc(F)c(Cl)c3)nccn12` [Compound 229, (1R,2S,3S)-3-(8-((3-chloro-4-fluorophenethyl)amino)imidazo[1,2-a]pyrazin-3-yl)cyclopentane-1,2-diol], for which, on human A3 receptor, the IC50 was 10 to 100 nM.

In the case of `O[C@@H]1[C@H](O)CS[C@H]1c1cnc2c(NCc3cccc(Cl)c3)cccn12` [Compound 221, (2S,3R,4S)-2-(8-((3-chlorobenzyl)amino)imidazo[1,2-a]pyridin-3-yl)tetrahydrothiophene-3,4-diol], the IC50 against human A3 receptor is greater than 10000 nM.

`O[C@@H]1[C@H](O)CS[C@H]1c1cnc2c(NCc3cc(F)cc(Cl)c3)nccn12` [Compound 201, (2S,3R,4S)-2-(8-((3-chloro-5-fluorobenzyl)amino)imidazo[1,2-a]pyrazin-3-yl)tetrahydrothiophene-3,4-diol] displayed an IC50 at human A3 receptor of 100 to 1000 nM.

As for `O[C@@H]1[C@H](O)CC[C@H]1c1nnc2c(NCCc3ccc(Cl)c(F)c3)nccn12` [Compound 241, (1R,2S,3S)-3-(8-((4-chloro-3-fluorophenethyl)amino)-[1,2,4]triazolo[4,3-a]pyrazin-3-yl)cyclopentane-1,2-diol], the IC50 at human A3 receptor is 10 to 100 nM.

At human A3 receptor, `O[C@@H]1[C@H](O)CC[C@H]1c1nnc2c(NCc3cc(Cl)ccc3Cl)nccn12` [Compound 234, (1R,2S,3S)-3-(8-((2,5-dichlorobenzyl)amino)-[1,2,4]triazolo[4,3-a]pyrazin-3-yl)cyclopentane-1,2-diol] displayed an IC50 of 10 to 100 nM.

Consider `O[C@@H]1[C@H](O)CC[C@H]1c1nnc2c(NCc3cccc(Cl)c3)nccn12` [Compound 232, (1R,2S,3 S)-3-(8-((3-chlorobenzyl)amino)-[1,2,4]triazolo[4,3-a]pyrazin-3-yl)cyclopentane-1,2-diol], for which, at human A3 receptor, the IC50 was greater than 10000 nM.

Turning to `O[C@@H]1[C@H](O)CS[C@H]1c1nnc2c(NCc3cccc(Cl)c3)cccn12` [Compound 218, (2S,3R,4S)-2-(8-((3-chlorobenzyl)amino)-[1,2,4]triazolo[4,3-a]pyridin-3-yl)tetrahydrothiophene-3,4-diol], on human A3 receptor, the IC50 was 100 to 1000 nM.

`O[C@@H]1[C@H](O)CC[C@H]1c1nnc2c(NCCc3ccc(F)cc3)nccn12` [Compound 236, (1R,2S,3S)-3-(8-((4-fluorophenethyl)amino)-[1,2,4]triazolo[4,3-a]pyrazin-3-yl)cyclopentane-1,2-diol] registered an IC50 on human A3 receptor of 10 to 100 nM.

For the molecule `O[C@@H]1[C@H](O)CC[C@H]1c1nnc2c(N[C@H]3C[C@@H]3c3ccccc3)nccn12` [Compound 240, (1R,2S,3S)-3-(8-(((1S,2R)-2-phenylcyclopropyl)amino)-[1,2,4]triazolo[4,3-a]pyrazin-3-yl)cyclo pentane-1,2-diol], the IC50 at human A3 receptor was in the range of 10 to 100 nM.

Turning to `O[C@@H]1[C@H](O)CS[C@H]1c1cnc2c(CCc3cccc(Cl)c3)nccn12` [Compound 206, (2S,3R,4S)-2-(8-(3-chlorophenethyl)imidazo[1,2-a]pyrazin-3-yl)tetrahydrothiophene-3,4-diol], the IC50 on human A3 receptor was greater than 10000 nM.

As for `O[C@@H]1[C@H](O)CC[C@H]1c1cnc2c(N[C@H]3C[C@@H]3c3ccccc3)nccn12` [Compound 230, (1R,2S,3S)-3-(8-(((1S,2R)-2-phenylcyclopropyl)amino)imidazo[1,2-a]pyrazin-3-yl)cyclopentane-1,2-diol], the IC50 against human A3 receptor fell in the range of 10 to 100 nM.

Take `O[C@@H]1[C@H](O)CS[C@H]1c1cnc2c(NCc3cccc(Oc4ccccc4)c3)nccn12` [Compound 204, (2S,3R,4S)-2-(8-((3-phenoxybenzyl)amino)imidazo[1,2-a]pyrazin-3-yl)tetrahydrothiophene-3,4-diol]: at human A3 receptor, the IC50 lay within 10 to 100 nM.

For `O[C@@H]1[C@H](O)CS[C@H]1c1cnc2c(NCc3cccc(Cl)c3)cc(Cl)cn12` [Compound 220, (2S,3R,4S)-2-(6-chloro-8-((3-chlorobenzyl)amino)imidazo[1,2-a]pyridin-3-yl)tetrahydrothiophene-3,4-diol], at human A3 receptor, the IC50 is greater than 10000 nM.

Turning to `O[C@@H]1[C@H](O)CS[C@H]1c1cnc2c(NCCc3ccccc3F)nccn12` [Compound 169, (2S,3R,4S)-2-(8-((2-fluorophenethyl)amino)imidazo[1,2-a]pyrazin-3-yl)tetrahydrothiophene-3,4-diol], the Ki in assay [1] and in assay [2] was greater than 10000 nM throughout.

Turning to `O[C@@H]1[C@H](O)CS[C@H]1c1nnc2c(NCc3cc(Cl)cc(Cl)c3)nccn12` [Compound 55, (2S,3R,4S)-2-(8-((3,5-dichlorobenzyl)amino)-[1,2,4]triazolo[4,3-a]pyrazin-3-yl)tetrahydrothiophene-3,4-diol], the Ki in assay [1] and in assay [2] was greater than 10000 nM throughout.

As for `O[C@@H]1[C@H](O)CS[C@H]1c1nnc2c(NCCc3cccc(F)c3)nccn12` [Compound 26, (2S,3R,4S)-2-(8-((3-fluorophenethyl)amino)-[1,2,4]triazolo[4,3-a]pyrazin-3-yl)tetrahydrothiophene-3,4-diol], the Ki in assay [1] and in assay [2] was greater than 10000 nM each time.

As to `O[C@@H]1[C@H](O)CS[C@H]1c1nnc2c(NCc3ccccc3)nccn12` [Compound 5, (2S,3R,4S)-2-(8-(benzylamino)-[1,2,4]triazolo[4,3-a]pyrazin-3-yl)tetrahydrothiophene-3,4-diol], the inhibition constant (Ki) in assay [1] and in assay [2] was greater than 10000 nM throughout.

In the case of `O[C@@H]1[C@H](O)CS[C@H]1c1nnc2c(NCCc3ccc(F)cc3)nccn12` [Compound 64, (2S,3R,4S)-2-(8-((4-fluorophenethyl)amino)-[1,2,4]triazolo[4,3-a]pyrazin-3-yl)tetrahydrothiophene-3,4-diol], the inhibition constant Ki in assay [1] and in assay [2] was greater than 10000 nM throughout.

For `O[C@@H]1[C@H](O)CS[C@H]1c1nnc2c(NCc3cccc(Br)c3)nccn12` [Compound 17, (2S,3R,4S)-2-(8-((3-bromobenzyl)amino)-[1,2,4]triazolo[4,3-a]pyrazin-3-yl)tetrahydrothiophene-3,4-diol], the Ki in assay [1] and in assay [2] was greater than 10000 nM each time.

Consider `O[C@@H]1[C@H](O)CS[C@H]1c1cnc2c(NCc3cccc(Br)c3)nccn12` [Compound 132, (2S,3R,4S)-2-(8-((3-bromobenzyl)amino)imidazo[1,2-a]pyrazin-3-yl)tetrahydrothiophene-3,4-diol], for which the inhibition constant (Ki) in assay [1] and in assay [2] was 1000 to 10000 nM in each case.

For the molecule `O[C@@H]1[C@H](O)CS[C@H]1c1nnc2c(NCCc3ccccc3)nccn12` [Compound 11, (2S,3R,4S)-2-(8-(phenethylamino)-[1,2,4]triazolo[4,3-a]pyrazin-3-yl)tetrahydrothiophene-3,4-diol], the inhibition constant (Ki) in assay [1] and in assay [2] was greater than 10000 nM in each case.

Consider `O[C@@H]1[C@H](O)CS[C@H]1c1nnc2c(NCc3ccccc3Cl)nccn12` [Compound 47, (2S,3R,4S)-2-(8-((2-chlorobenzyl)amino)-[1,2,4]triazolo[4,3-a]pyrazin-3-yl)tetrahydrothiophene-3,4-diol], for which the Ki in assay [1] and in assay [2] was greater than 10000 nM throughout.

Consider `O[C@@H]1[C@H](O)CS[C@H]1c1cnc2c(NCc3ccccc3Cl)nccn12` [Compound 163, (2S,3R,4S)-2-(8-((2-chlorobenzyl)amino)imidazo[1,2-a]pyrazin-3-yl)tetrahydrothiophene-3,4-diol], for which the Ki in assay [1] was 1000 to 10000 nM; in assay [2], greater than 10000 nM.

Regarding `O[C@@H]1[C@H](O)CO[C@H]1c1nnc2c(NCCc3cccc(Cl)c3)nccn12` [Compound 39, (2S,3R,4R)-2-(8-((3-chlorophenethyl)amino)-[1,2,4]triazolo[4,3-a]pyrazin-3-yl)tetrahydrofuran-3,4-diol], the Ki in assay [1] and in assay [2] was greater than 10000 nM throughout.
